## Apparent affinities of Ab-91 variants for a coronavirus HR2 peptide

Target: peptide PDVDLGDISGINAS, taken from heptad repeat 2 (HR2) of SARS-CoV-2 spike.

Each scFv is VL, three GGGGS repeats, VH, as in the parent Ab-91, and differs from it in the CDRs of the heavy chain only.
VL: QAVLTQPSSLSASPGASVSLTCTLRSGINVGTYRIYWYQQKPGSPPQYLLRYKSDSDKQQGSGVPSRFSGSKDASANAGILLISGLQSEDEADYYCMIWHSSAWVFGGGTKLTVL
VH: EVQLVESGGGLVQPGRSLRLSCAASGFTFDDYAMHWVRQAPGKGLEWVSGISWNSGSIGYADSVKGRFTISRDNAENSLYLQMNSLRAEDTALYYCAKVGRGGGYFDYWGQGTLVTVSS

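Phage display of a naive human antibody library on the peptide gave the parent. AAYL51 was designed without a model: most single CDR substitutions and a random sample of double and triple ones. In AlphaSeq, yeast of one mating type display the scFv and yeast of the other type display the target. Mating (16 h, 30 °C) was followed by selection of diploids and sequencing of their barcodes. Each replicate has its own calibration line, from reference interactions of the BCL2 family. The assay was run in three technical replicates.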

The parent's heavy chain CDRs are GFTFDDYAMH, GISWNSGSIGYADSVK, VGRGGGYFDY; each variant's own CDRs replace them letter for letter.
Values are log10 of the apparent Kd in nM; lower means stronger binding.
A mean of the replicates is given; it leaves out those without a signal.
"n.d." marks a missing value. The strain was present, yet no cells mated with the target were sequenced in that replicate, which points to weak or no binding.

CDR-H1	CDR-H2	CDR-H3	log10 Kd, replicates	mean log10 Kd (nM)	signal with controls
GFCFDDYARH	GISWNSGCIGYADSVK	VGRGGGYFDY	4.04 n.d. n.d.	4.04	1/9 (3.85)
GFTFDDYAMH	GIFWNQGSIGYADSVK	VGYGGGYFDY	3.83 n.d. 4.91	4.37	7/9 (4.74)
GFTYDTYAMH	GISWNSGSIGYADSVV	VGRGGGYFDY	2.84 4.16 n.d.	3.50	0/9
GFTFDSYAMH	GISWNSGSIGYADSVK	VGRDGGYFQY	1.06 0.72 1.64	1.14	0/9
GVTFDDYAMN	GISYNSGSIGYADSVK	VGRGGGYFDY	n.d. n.d. n.d.	n.d.	3/9 (4.50)
GFTFDDYAMH	GISWNSGSIGYADSVK	FGRGIGIFDY	n.d. n.d. n.d.	n.d.	2/9 (3.74)
GPTFDDYSMH	GISWNSGSIGYADSVK	VGRGGGYFDY	2.32 2.76 2.24	2.44	2/9 (3.79)
GFTMDDYAMI	GISWNSGSIGYADHVK	VGRGGGYFDY	n.d. n.d. n.d.	n.d.	1/9 (4.70)
GFTFDDYAMH	GISWNSGSIGWADSVK	VGRGGGYFDY	4.02 3.65 5.37	4.35	4/9 (5.02)
GFTTDDYAMH	GISWNSGSIGYADSVK	VGRVGYYFDY	5.22 n.d. n.d.	5.22	2/9 (4.07)
GFTFDAYAMH	GISWNSGSEGYADSVK	VGRGGGDFDY	n.d. 4.20 n.d.	4.20	1/9 (5.16)
FFTFDDYAMH	GISWNSGSIGYPDSVK	VGRGSGYFDY	n.d. 4.78 n.d.	4.78	0/9
GFTFDDYAMH	GISWNSGTIGYADSVK	VGRGGGYFDY	2.42 2.81 3.21	2.82	1/9 (2.94)
GFTFDDYAMH	GHSWHSGSIGYADSVK	VGRGGGTFDY	4.91 n.d. 4.87	4.89	4/9 (4.95)
GFTFDDYAMH	GISWNEGSIGYASSVK	VYRGGGYFDY	3.46 n.d. 3.81	3.64	0/9
GFTFDDYAMH	MISWNSGSTGYADSVK	VGRGGGYFTY	n.d. n.d. n.d.	n.d.	2/9 (4.61)
GFTFLDYEMH	GISWNSGSIGYADSVK	LGRGGGYFDY	5.51 4.84 5.16	5.17	3/9 (4.42)
GFTFDDYWMH	GISWNSGSIGYADSVK	VGFGGGYFDY	n.d. n.d. n.d.	n.d.	2/9 (3.99)
GFTFDDYAMH	GISWNSGSIGYADSVW	VGRCGGYFDY	n.d. n.d. n.d.	n.d.	3/9 (4.61)
GFTFDDYAMH	GISWNSGSIGTADSVK	VGRGGVYFDY	2.08 1.97 1.96	2.00	2/9 (4.12)
GFTFDDYAPH	GISWNSGSIGYADSVK	VGRKGGYFDY	n.d. n.d. n.d.	n.d.	1/9 (2.49)
GFTDDDYAMH	GISANSGSIGYADSVK	VGRGGGYFDT	n.d. n.d. n.d.	n.d.	3/9 (5.28)
GFTFDDYAMH	GWQWNSGSIGYADSVK	VGRGVGYFDY	n.d. n.d. n.d.	n.d.	1/9 (3.97)
RFTFDDYAMH	GISWNSGSIGYADSVK	VGRQGKYFDY	4.41 3.81 n.d.	4.11	3/9 (4.77)
GFTFDCYAMH	GISWNSGSIGYAPSVK	VGRGGVYFDY	4.63 6.72 4.86	5.40	7/9 (4.94)
GFTFDDYAMG	GISKNSGSIGYADSVK	VGRGGGPFDY	3.84 n.d. n.d.	3.84	1/9 (4.37)
GFTFDDYAMH	GISMNSGSIYYAVSVK	VGRGGGYFDY	5.03 5.87 n.d.	5.45	2/9 (4.71)
GFTFDDYAMK	GISWNSGSIGYADSDK	VGRGGGLFDY	n.d. 5.19 n.d.	5.19	2/9 (4.38)
GLTFKDYAMH	GISWNSGSIGYADSVK	MGRGGGYFDY	2.03 3.43 2.32	2.59	1/9 (3.89)
GFTFDDYSMH	GISWNKGSIGYADSVK	VGEGGGYFDY	n.d. 2.14 n.d.	2.14	0/9
GFTFDDYAMH	GISWNSGSIGYADSVK	VGRGGGMFDY	3.45 n.d. 3.10	3.27	2/9 (3.76)
GFTFDLYAMH	GISWNAGSIGYADSVK	VGAGGGYFDY	1.67 1.46 0.99	1.37	0/9

A selection of 5 entries from above:

CDR-H1	CDR-H2	CDR-H3	log10 Kd, replicates	mean log10 Kd (nM)	signal with controls
GFTFDDYSMH	GISWNKGSIGYADSVK	VGEGGGYFDY	n.d. 2.14 n.d.	2.14	0/9
GFTFDDYAMH	GISMNSGSIYYAVSVK	VGRGGGYFDY	5.03 5.87 n.d.	5.45	2/9 (4.71)
GFTFDDYAMH	GISWNSGSIGYADSVK	FGRGIGIFDY	n.d. n.d. n.d.	n.d.	2/9 (3.74)
GVTFDDYAMN	GISYNSGSIGYADSVK	VGRGGGYFDY	n.d. n.d. n.d.	n.d.	3/9 (4.50)
GFTFDDYWMH	GISWNSGSIGYADSVK	VGFGGGYFDY	n.d. n.d. n.d.	n.d.	2/9 (3.99)

Empty control strains, which show no peptide, gave a signal in 21% of pairings with library AAYL51; the median was 4.54 and 95% of these signals were weaker than 3.26. No background was subtracted. For each scFv, signals with the empty controls are counted beside the result, with their mean in brackets.
Parent in this assay: reference entry 1.86, copy in this library 0.88.

Values reported by Engelhart et al. 2022, doi:10.1038/s41597-022-01779-4 (FLAb copy).